Target: Cannabinoid receptor 1 (Rattus norvegicus, UniProt P20272)

Amino acid sequences for entries named in this document (tags omitted).
UniProt P20272, whole entry: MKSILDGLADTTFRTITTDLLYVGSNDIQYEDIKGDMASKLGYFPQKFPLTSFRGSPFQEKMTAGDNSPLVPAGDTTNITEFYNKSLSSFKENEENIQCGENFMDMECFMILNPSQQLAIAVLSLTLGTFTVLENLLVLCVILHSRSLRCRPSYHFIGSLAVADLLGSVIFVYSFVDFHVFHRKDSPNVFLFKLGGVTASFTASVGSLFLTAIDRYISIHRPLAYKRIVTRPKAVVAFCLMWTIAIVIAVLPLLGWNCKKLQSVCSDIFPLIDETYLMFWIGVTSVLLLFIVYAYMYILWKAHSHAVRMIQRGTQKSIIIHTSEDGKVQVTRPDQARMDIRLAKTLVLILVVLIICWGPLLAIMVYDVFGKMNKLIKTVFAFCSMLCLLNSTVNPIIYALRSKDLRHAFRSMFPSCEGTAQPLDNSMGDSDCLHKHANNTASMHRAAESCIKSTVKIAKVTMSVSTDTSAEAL

CCCCC/C=C/C/C=C/C/C=C/C/C=C/CCCC(=O)NC(C)CO (stereo unspecified) [(5Z,8Z,11Z,14Z)-N-(1-Methyl-2-hydroxyethyl)-5,8,11,14-icosatetrenamide]
Ki: 137 nM

Source: BindingDB's records for PubMed 11408610 (Virginia Commonwealth University, 2001)
